How the values were obtained:
[1] = biological target: PIM1 (Homo sapiens (Human), UniProt P11309); assay: Pim kinase binding activity, Caliper LC3000 microfluidic peptide phosphorylation assay (Example 901); format: biochemical; settings: 20 pM PIM1, 1 μM FAM-peptide, 10 μM ATP, 90 minutes at room temperature; read-out: PIM1 LC3K (KI)
Protocol: (§1) PIM-1, -2, and -3 enzymes were generated as fusion proteins expressed in bacteria and purified by IMAC column chromatography (Sun, X., Chiu, J. F., and He, Q. Y. (2005) Expert Rev. Proteomics, 2:649-657). A fluorescent-labeled Pim-specific peptide substrate, was custom synthesized by American Peptide Company (Sunnyvale, Calif.). Reaction Buffer contained 10 mM HEPES, pH 7.2, 10 mM MgCl2, 0.01% Tween 20, 2 mM DTT. Termination Buffer contained 190 mM HEPES, pH 7.2, 0.015% Brij-35, 0.2% Coating Reagent 3 (Caliper Life Sciences, Hopkinton, Mass.), 20 mM EDTA. Separation Buffer contained 100 mM HEPES, pH 7.2, 0.015% Brij-35, 0.1% Coating Reagent 3, 1:200 Coating Reagent 8 (Caliper Life Sciences, Hopkinton, Mass.), 10 mM EDTA and 5% DMSO.
PIM reactions were carried out in a final volume of 10 μL per well in a 384-well plate. A standard enzymatic reaction, initiated by the addition of 5 μL 2×ATP and test compound to 5 μL of 2× enzyme and FAM-peptide, contained 20 pM PIM1, 50 pM PIM2, or 55 pM PIM3, 1 μM FAM-peptide, and 10 μM ATP, in Reaction Buffer. […] The product and substrate fluorophore were excited at 488 nm and detected at 530 nm. Substrate conversion was calculated from the electropherogram using HTS Well Analyzer software (Caliper Life Sciences, Hopkinton, Mass.). Ki values for the test compound were calculated.

Amino acid sequences for entries named in this document (tags omitted). A change or cut given only in a name is not applied to a line headed by its entry.
UniProt P11309, whole entry: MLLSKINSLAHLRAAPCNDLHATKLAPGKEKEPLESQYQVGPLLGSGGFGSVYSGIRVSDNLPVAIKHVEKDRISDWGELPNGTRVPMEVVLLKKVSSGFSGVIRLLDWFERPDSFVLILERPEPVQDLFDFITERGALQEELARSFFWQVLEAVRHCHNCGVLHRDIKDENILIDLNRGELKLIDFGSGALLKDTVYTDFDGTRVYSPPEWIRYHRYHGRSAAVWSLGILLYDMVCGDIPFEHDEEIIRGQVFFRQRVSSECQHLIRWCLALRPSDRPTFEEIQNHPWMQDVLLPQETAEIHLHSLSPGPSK
UniProt Q9P1W9: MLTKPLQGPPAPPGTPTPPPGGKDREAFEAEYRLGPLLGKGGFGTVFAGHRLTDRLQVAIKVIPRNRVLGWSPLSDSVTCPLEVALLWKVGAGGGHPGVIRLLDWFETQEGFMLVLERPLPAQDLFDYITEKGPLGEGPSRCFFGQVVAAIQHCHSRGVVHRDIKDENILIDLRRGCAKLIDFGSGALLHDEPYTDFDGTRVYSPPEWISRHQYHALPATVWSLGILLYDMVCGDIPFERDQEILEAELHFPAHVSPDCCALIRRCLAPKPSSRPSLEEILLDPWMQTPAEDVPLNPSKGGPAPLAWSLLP

[2] = biological target: PIM2 (Homo sapiens (Human), UniProt Q9P1W9); assay: as above; format: biochemical; settings: 50 pM PIM2, 1 μM FAM-peptide, 10 μM ATP, 90 minutes at room temperature; read-out: PIM2 LC3K (KI)
Protocol: as §1, with “A” for “PIM-1, -2, and -3 enzymes were generated as fusion proteins expressed in bacteria and purified by IMAC column chromatography (Sun, X., Chiu, J. F., and He, Q. Y. (2005) Expert Rev. Proteomics, 2:649-657). A”
PIM reactions were carried out in a final volume of 10 μL per well in a 384-well plate. […] After 90 minutes of incubation at room temperature, the phosphorylation reaction was stopped by the addition of 10 μL Termination Buffer. The product and substrate in each independent reaction were separated on a 12-sipper microfluidic chip (Caliper Life Sciences, Hopkinton, Mass.) run on a Caliper LC3000® (Caliper Life Sciences, Hopkinton, Mass.). The separation of product and substrate was optimized by choosing voltages and pressure using Caliper's Optimizer software (Hopkinton, Mass.). […] Substrate conversion was calculated from the electropherogram using HTS Well Analyzer software (Caliper Life Sciences, Hopkinton, Mass.). Ki values for the test compound were calculated.

Cn1ncc(NC(=O)c2nc(-c3ccccc3F)ccc2N)c1N1CC[C@@H](N)C1 [Example 124, (R)-3-amino-N-(5-(3-aminopyrrolidin-1-yl)-1-methyl-1H-pyrazol-4-yl)-6-(2-fluorophenyl)picolinamide]
Ki [1]: 1.92 nM

Cn1ncc(NC(=O)c2nc(-c3c(F)cccc3F)sc2N)c1OC1CCNCC1 [Example 120, 5-amino-2-(2,6-difluorophenyl)-N-(1-methyl-5-(piperidin-4-yloxy)-1H-pyrazol-4-yl)thiazole-4-carboxamide]
Ki [2]: 28.3 nM

Cn1ncc(NC(=O)c2nc(-c3ccccc3F)cnc2N)c1N1CCC[C@H](N)C1 [Example 119, (S)-3-amino-N-(5-(3-aminopiperidin-1-yl)-1-methyl-1H-pyrazol-4-yl)-6-(2-fluorophenyl)pyrazine-2-carboxamide]
Ki [1]: 0.274 nM

Reference: patent US8669361B2, “Pyrazol-4-yl-heterocyclyl-carboxamide compounds and methods of use” (Genentech, Inc., priority 2010, dated 2014)
